Literature values, collected in patent US6660287B1, “Prevention of spoilage of produce using acidified expanded amorphous aluminum silicate impregnated with chlorite” (Bio-Cide International, Inc., priority 1999, dated 2003).

System: mice
Conditions: subchronic and acute oral administration, mice (Meier et al.)

sodium chlorite
chromosomal aberrations or increased numbers of micronuclei in the bone marrow: failed to induce any chromosomal aberrations or increased numbers of micronuclei
